Measured values: ChEMBL document CHEMBL1148673, “Peptidomimetic C5a receptor antagonists with hydrophobic substitutions at the C-terminus: increased receptor specificity and in vivo activity” (Bioorg Med Chem Lett, 2006)

Species on record: Homo sapiens
Assay: Selectivity for C5aR over NK2 receptor

CC(C)CC[C@H](NC(=O)[C@@H]1CCCN1C(=O)[C@H](CCCN)NC(=O)[C@H](Cc1ccccc1)NC(=O)[C@@H]1CC(=O)NC(=O)N1)C(=O)N[C@@H](Cc1ccc(F)cc1)C(=O)N[C@H](Cc1ccccc1)C(N)=O
Ratio IC50: 18
